# scFv variants of Ab-91 (heavy chain) against a SARS-CoV-2 spike peptide

Data: MIT Lincoln Laboratory AlphaSeq set, Engelhart et al. 2022, doi:10.1038/s41597-022-01779-4, as distributed in FLAb.

Binding partner: SARS-CoV-2 spike HR2 peptide, sequence PDVDLGDISGINAS.

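The parent was found by panning a naive human phage display library on the peptide. In library AAYL51, one, two or three CDR residues were substituted; doubles and triples were drawn at random. AlphaSeq pools MATa yeast showing the antibodies with MATalpha yeast showing the peptide. After mating in shaken culture at 30 °C for 16 h, diploids were selected and their barcode pairs sequenced. The ratio of observed to expected reads was calibrated, replicate by replicate, on BCL2-family standards whose Kd was known from biolayer interferometry. Each pool was mated in three replicate cultures.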

Ab-91 is the parent antibody, in scFv form: VL, then a 15-residue (Gly4Ser)3 linker, then VH. The light chain is unchanged in all variants.
VL: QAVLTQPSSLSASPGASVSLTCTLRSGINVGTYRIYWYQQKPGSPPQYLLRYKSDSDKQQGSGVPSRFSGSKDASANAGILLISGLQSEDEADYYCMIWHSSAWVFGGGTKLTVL
VH: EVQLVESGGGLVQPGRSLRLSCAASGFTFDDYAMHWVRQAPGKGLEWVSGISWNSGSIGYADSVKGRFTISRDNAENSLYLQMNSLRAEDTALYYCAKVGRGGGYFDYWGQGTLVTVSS

Changes read parent residue, position, new residue, counted from the first residue of the VH shown. Values are log10 of the apparent Kd in nM; lower means stronger binding. "ND" means that the variant was in the library but no mating with the target was seen in that replicate; the authors take this as a sign of poor binding, and no number exists. For reference, the parent read 1.86 as the reference entry and 0.88 as a member of this library.

| # | changes | replicates, log10 nM | empty controls |
|---|---|---|---|
| 1 | D31M Y105F Y108L | 1.06 1.03 0.94 | 3/9 (4.79) |
| 2 | G56E S63P G100I | ND ND ND | 1/9 (3.96) |
| 3 | H35D W53I G102D | ND ND 4.59 | 1/9 (3.45) |
| 4 | A33N S52A | ND ND ND | 1/9 (4.89) |
| 5 | I51M S57K I58F | ND ND ND | 0/9 |
| 6 | M34D V99M G104N | ND ND ND | 1/9 (4.35) |
| 7 | G26T M34P V64S | 4.32 5.07 5.00 | 7/9 (4.79) |
| 8 | G50A G56I D62M | ND ND ND | 2/9 (3.80) |
| 9 | Y32E G56A Y105D | ND ND ND | 0/9 |
| 10 | I51A G100F | ND 3.80 ND | 3/9 (4.49) |
| 11 | A33G G100Q G103R | -0.38 -0.48 -1.43 | 3/9 (3.32) |
| 12 | D31N K65P V99P | 4.97 6.55 5.77 | 4/9 (4.47) |
| 13 | W53Y S57N G100D | ND ND 4.16 | 2/9 (4.87) |
| 14 | D31H | 1.35 1.05 0.76 | 0/9 |
| 15 | G26P R101A F106K | ND 4.36 ND | 2/9 (4.73) |
| 16 | T28P I51T D107L | 4.34 ND ND | 7/9 (4.99) |
| 17 | Y32Q R101K G102L | ND ND ND | 1/9 (3.93) |
| 18 | F27W T28Y G59C | ND ND ND | 1/9 (4.05) |
| 19 | I51H S57N | ND ND ND | 2/9 (3.00) |
| 20 | A33F S55Q V99C | ND ND ND | 1/9 (4.57) |
| 21 | S52G Y105V Y108N | ND 2.72 ND | 0/9 |
| 22 | Y32V R101A Y108G | 1.57 1.76 0.94 | 2/9 (3.90) |
| 23 | I51L S52C K65M | 5.07 5.86 4.22 | 4/9 (5.36) |
| 24 | G50I S57G K65Q | ND ND ND | 3/9 (4.66) |
| 25 | D30S R101T G104P | ND ND 3.96 | 2/9 (4.81) |
| 26 | D31N Y32K I51N | ND ND ND | 0/9 |
| 27 | I51V Y60N | 5.64 5.65 4.55 | 5/9 (4.65) |
| 28 | F27A A33F A61N | 3.53 3.69 4.52 | 4/9 (5.05) |
| 29 | S63E G100C Y108E | 4.44 ND ND | 6/9 (4.42) |
| 30 | D31R N54R Y105H | ND ND ND | 0/9 |
| 31 | I58R S63Y R101L | 1.23 1.41 0.82 | 2/9 (5.19) |
| 32 | N54G V64T K65D | ND ND ND | 1/9 (3.73) |
| 33 | T28S D30Q G50F | 4.16 3.93 ND | 1/9 (3.99) |
| 34 | D30F S57W S63W | ND ND 3.71 | 0/9 |
| 35 | T28R Y32I G104P | 4.54 ND ND | 1/9 (5.39) |
| 36 | T28D D31S V64K | ND 3.90 4.10 | 0/9 |
| 37 | T28M Y108E | ND ND ND | 0/9 |
| 38 | F27D N54P | ND ND ND | 0/9 |
| 39 | I51P R101C Y108V | ND ND ND | 2/9 (4.52) |
| 40 | H35T G59Q D107R | ND ND ND | 1/9 (2.75) |
| 41 | A33N G50S Y108D | ND ND ND | 1/9 (2.61) |
| 42 | I58Q G59E | ND ND 4.13 | 0/9 |
| 43 | Y60G A61P D62F | 4.44 ND ND | 2/9 (4.09) |
| 44 | I58N D62Q V64E | ND ND ND | 0/9 |
| 45 | D31L S63E R101S | 4.36 ND 5.11 | 5/9 (5.07) |
| 46 | M34E N54D | ND 5.02 3.81 | 4/9 (4.97) |
| 47 | H35P R101K Y105S | ND ND ND | 0/9 |
| 48 | G59E Y108F | 5.06 ND 4.29 | 3/9 (3.40) |
| 49 | D62A V64F Y108R | ND ND ND | 1/9 (3.50) |

Picked from the list: the 7 lowest averages where every replicate gave a value.

changes	replicates, log10 nM	empty controls
A33G G100Q G103R	-0.38 -0.48 -1.43	3/9 (3.32)
D31M Y105F Y108L	1.06 1.03 0.94	3/9 (4.79)
D31H	1.35 1.05 0.76	0/9
I58R S63Y R101L	1.23 1.41 0.82	2/9 (5.19)
Y32V R101A Y108G	1.57 1.76 0.94	2/9 (3.90)
F27A A33F A61N	3.53 3.69 4.52	4/9 (5.05)
G26T M34P V64S	4.32 5.07 5.00	7/9 (4.79)

Background: pairings of library AAYL51 with three empty control strains gave a value in 21% of cases (median 4.54, 5th percentile 3.26). Values in that range, when seen in few replicates, are hard to tell from nonspecific mating. For each scFv, signals with the empty controls are counted beside the result, with their mean in brackets.